Results taken from patent US20260285879A1, “CDK INHIBITOR AND CRYSTAL FORM OF PHARMACEUTICALLY ACCEPTABLE SALT THEREOF, AND USE THEREOF” (priority 2023, published 2026).
Values after ≈ are worked out from the molar mass of the structure shown. Structures can show the parent of a compound that is named as a salt.

Assay: Solubility comparison in water, SGF, FaSSIF, FeSSIF (HPLC, pH, XRPD of filter cakes)
Format: physicochemical
Conditions: for Solubility −0.5 h: 30 min
Experimental: 7. Preparation of Biological Media
Two samples were prepared in parallel for each medium. All samples were shaken at 200 rpm at 37° C. for 24 h. At 0.5 h, 2 h, and 24 h, appropriate amounts of the suspensions were taken and filtered. The obtained filtrates were analyzed by HPLC and their pH values were measured, and the filter cakes were analyzed by XRPD.

Structure (SMILES) | Solubility −0.5 h (FaSSIF, 37° C., 5 mg/mL sample) | Solubility −0.5 h (FeSSIF, 37° C., 5 mg/mL sample) | Solubility −0.5 h (Water, 37° C., 5 mg/mL sample) | XRPD-24 h (FeSSIF, filter cake, 24 h) | Solubility 24 h (SGF, 37° C., 24 h, 5 mg/mL sample)
CC(=O)c1c(C)c2cnc(Nc3ccc4c(c3)OC[C@@H]3CN(C5CCN(C)CC5)CCN43)nc2n(C2CCCC2)c1=O | 240 µg/mL (≈ 420 µM) | 1630 µg/mL (≈ 2850 µM) | 3320 µg/mL (≈ 5810 µM) |  | 
CC(=O)c1c(C)c2cnc(Nc3ccc4c(c3)OC[C@@H]3CN(C5CCN(C)CC5)CCN43)nc2n(C2CCCC2)c1=O [crystalline form B of hydrochloride monohydrate of compound ] |  |  |  | Unchanged | >5000 µg/mL
